Sequences of proteins named here, by UniProt entry; tags and fusion partners are left off. A line that says so, or that is headed by a name, gives the form on record, which may keep a tag or linker.
UniProt P10721, other isoform, or with tags, fused parts or gaps limits assumed: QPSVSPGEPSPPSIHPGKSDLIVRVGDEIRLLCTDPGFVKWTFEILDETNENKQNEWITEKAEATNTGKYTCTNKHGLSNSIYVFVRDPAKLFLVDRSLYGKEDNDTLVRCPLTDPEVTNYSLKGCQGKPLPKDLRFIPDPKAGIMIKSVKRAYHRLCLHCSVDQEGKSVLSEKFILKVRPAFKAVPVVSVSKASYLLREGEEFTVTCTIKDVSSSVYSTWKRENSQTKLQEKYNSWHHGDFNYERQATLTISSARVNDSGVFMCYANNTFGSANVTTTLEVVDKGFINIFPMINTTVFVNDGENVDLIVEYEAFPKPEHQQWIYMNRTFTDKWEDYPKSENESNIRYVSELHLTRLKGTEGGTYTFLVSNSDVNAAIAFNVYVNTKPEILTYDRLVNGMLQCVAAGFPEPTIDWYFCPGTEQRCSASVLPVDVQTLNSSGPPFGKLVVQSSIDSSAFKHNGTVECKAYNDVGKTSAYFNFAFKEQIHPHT

In patent US20250041438A1 (NOVELTY NOBILITY, published 2025):

Biological target: T1, human c-Kit (elabscience, PKSH030939) (human, UniProt P10721-2 26-516, limits assumed)
T1 construct: Bought recombinant protein, used as immunogen, ELISA coat and SPR ligand; also called recombinant c-Kit protein (cat #PKSH030939); c-KIT protein
Assay: SPR (Reichert SR7500DC), c-Kit immobilized on PEG chip, antibody flowed

B1: 2G4 antibody (antibody, V domains shown)
VH: QVQLVESGGGVVQPGRSLRLSCAASGFTFSRYGMHWVRQAPGKGLEWVAVIWYDGTNKDYTDSVRGRFTISRDNSKNTLYLQMNSLRAEDTAVYYCAREDWAEAFDMWGQGTTVTVSS
VL: not shown
notes: also called mAb 2G4; anti-c-Kit antibody 2G4
- Kd: ~2.82 pM
